A selection: hits, their analogues and other compounds. The true share with any hit is near 3.7%.
Nrf2 ARE act: activates Nrf2 signaling; AREc32 ARE-luciferase reporter (MCF7-derived line), luminescence, 24 h; Potency, µM (highest dose often 46.1 µM), most hits filed as activators; 410,000 tested, 0.31% active; further: nearly all actives have a fitted effect of over 65% in size
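Each well held 1000 AREc32 cells, which were incubated with compound for 24 hr at 37 deg C after overnight attachment, and ARE reporter activity was quantified by firefly luciferase luminescence.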
p53 reactivation: mutant p53 re-activation in reporter cells | AID 504706 | Potency, µM (top dose mostly 92.2 µM), hits mostly activators | 320,000 tested, 0.063% active | H1299 p53-A138V BP100-luciferase reporter, luminescence, 24 h; further: nearly all actives have a fitted effect of over 45% in size
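p53-null H1299 cells stably carrying temperature-sensitive p53-A138V and a BP100-luciferase reporter were pinned with compounds (4-point, 1:5 series) and held 24 hrs at 37 deg C. Luminescence was read 10 min after detection reagent.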
miR-21 reporter: miR-21 reporter, rising signal. HeLa miR-21 FLuc reporter, luciferase, 48 h. Potency, µM (highest dose often 38.3 µM). 340,000 tested, under 10 active. AID 2288; active = well fitted rising curve with a large enough effect; inconclusive = small, poorly fitted or top-dose-only effect; inactive = no such curve, though single readings can be large or run the other way;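 further: miR-21 action dims this reporter so a rising signal means less miR-21 action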
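Compounds were titrated across several concentrations (up to approximately 40 uM) and incubated 48 hours with HeLa miR-21-FLuc reporter cells (miR-21 target sequence downstream of FLuc, endogenous miR-21). Readout was firefly luciferase luminescence after lytic detection reagent.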
ClpP mod: qHTS Assay for Activators of ClpP. ATP-dependent Clp protease proteolytic subunit (Bacillus subtilis (strain 168)), P80244. purified B. subtilis ClpP, FRET peptide cleavage, 20 min. Potency, µM (series often up to 57.5 µM). 340,000 tested, 1.9% active; active means well fitted falling curve with a large enough effect; inconclusive means small, poorly fitted or top-dose-only effect; inactive means no such curve, though single readings can be large or run the other way; further: the source files actives as falling curves though it sought activators and does not explain the sign; nearly all actives have a fitted effect of over 65% in size
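FRET quenching reversal measured ClpP activation: 10 microg/mL B. subtilis ClpP at pH 8 with the FRET-FV decapeptide, read at 430 nm after 320 nm excitation. The 20-min minus 0-min signal was scaled between DMSO/no-enzyme wells and ADEP (5.8 microM final).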
Nrf2 block: blocks Nrf2 signaling; 360,000 tested, 2.1% active; Potency, µM (highest dose often 46 µM), most hits filed as inhibitors; AID 504444; A549 ARE-Fluc reporter, luciferase luminescence, 18-24 h; further: nearly all actives have a fitted effect of over 60% in size
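Two sequential reads on A549 ARE_Fluc cells exposed to compound for 18-24 h: a CellTiter-Fluor fluorescence read for viability, then a luciferase luminescence read for Nrf2/ARE activity.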
A549 viability: counter-screen for Nrf2 inhibitors: cytotoxicity in A549 cells. 390,000 tested, 0.16% active. Potency, µM (doses to about 46 µM), usual class: inhibitors. A549 ARE-Fluc cells, CellTiter-Fluor viability, 18-24 h
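Cytotoxicity counterscreen: CellTiter-Fluor fluorescence was measured in A549 ARE_Fluc cells after 18-24 h of compound exposure in a concentration series. The subsequent BugLite luminescent read reports ARE-luciferase activity.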
Each line names hits and unclear results; the compound was inactive in the other large screens. Unless noted, the call rests on the fitted dose curve; in most records, active means well fitted curve in the direction sought with a large enough effect; inconclusive means small, poorly fitted or top-dose-only effect, or another doubt; inactive means no such curve, though single readings can be large; an effect the other way counts as inactive or inconclusive.

Nc1ccc2ccc3cccc[n+]3c2c1	Nrf2 block 13µM, A549 viability inconclusive (no result: p53 reactivation, ClpP mod)
CCC(=NCc1ccc2c(c1)OCO2)c1c(O)n(C2CCCCC2)c(=O)[nH]c1=O	Nrf2 block 11.6µM (no result: A549 viability)
C=CCn1c(O)c(C(C)=NCc2ccc3c(c2)OCO3)c(=O)[nH]c1=O	Nrf2 block 20.6µM (no result: ClpP mod)
Cc1ccc2oc(-c3ccc(Cl)cc3)c(O)c(=O)c2c1	none (no result: p53 reactivation)
CCOc1ccc(S(=O)(=O)N(CC(=O)NCc2ccccc2OC)c2ccccc2)cc1	Nrf2 block 16.4µM (no result: p53 reactivation)
CCOc1ccc(S(=O)(=O)N(CC(=O)NCCc2ccc(OC)c(OC)c2)c2ccccc2)cc1	Nrf2 block inconclusive (no result: p53 reactivation)
CC1CC(C)CC(C)C(O)C(C#N)=CC=CCC(C2CCCC2C(=O)O)OC(=O)CC(O)C(C)C1 (configuration not stated)	Nrf2 block 0.517µM, A549 viability 2.31µM (no result: p53 reactivation, miR-21 reporter)
COC1CCC(OC2CC(C3(C)CCC4(CC(O)C(C)C(C(C)/C=C(\C)C(=O)C(C)CC(C)C(=O)O)O4)O3)OC3(OC(C4OC(O)(CO)C(C)CC4C)CC3C)C2C)OC1C (configuration not stated)	Nrf2 block 0.411µM, A549 viability 0.651µM (no result: p53 reactivation, miR-21 reporter)
Cc1cc2nc(-c3cccc(Br)c3)c(Cc3cccc(Cl)c3)n2c(C)c1Br	Nrf2 ARE act inconclusive (no result: p53 reactivation, miR-21 reporter, Nrf2 block, A549 viability)
CC(=O)N1c2ccc(S(=O)(=O)NCC3CCC(C(=O)Nc4cc(C)cc(C)c4)CC3)cc2CC1C (configuration not stated)	Nrf2 block 20.6µM (no result: p53 reactivation)
CC1CCC(C(C)C)C(OC(=O)COC(=O)c2ccccc2N)C1 (configuration not stated)	p53 reactivation inconclusive, ClpP mod 28.2µM
CC1CCC(C(C)C)C(OP(N)(=O)c2ccccc2)C1 (configuration not stated)	none
c1ccc(-c2nn(-c3ccccc3)[n+](-c3ccccc3)n2)cc1	ClpP mod inconclusive, Nrf2 block 20.6µM (no result: p53 reactivation, miR-21 reporter)
CCOc1ccc(C(=O)Nc2cccc(C(=O)OCc3cc(=O)n4nc(C5CC5)sc4n3)c2)cc1	none (no result: p53 reactivation, Nrf2 block)
O=[N+]([O-])c1ccc(N2CCCC2)cc1N/N=C1\CN2CCC1CC2	A549 viability 9.2µM
Nc1cccc2c1Cc1cc([N+](=O)[O-])ccc1-2	ClpP mod 28.2µM (no result: p53 reactivation, miR-21 reporter)
N=C1c2ccccc2CN1c1cccc([N+](=O)[O-])c1	Nrf2 ARE act inconclusive
CCOC(=O)c1ccc(N2C(=O)c3n[nH]c(-c4cccs4)c3C2c2ccc(OC)cc2OC)cc1 (configuration not stated)	miR-21 reporter inconclusive, ClpP mod inconclusive, Nrf2 block inconclusive (no result: p53 reactivation)
CCc1ccc(Nc2nc3c(S(=O)(=O)c4ccc(C)cc4)nnn3c3ccsc23)cc1	Nrf2 block inconclusive (no result: p53 reactivation)
CCN(CCNc1ccc([N+](=O)[O-])c2cccnc12)S(=O)(=O)c1ccccc1	none
Cc1c(NS(=O)(=O)c2ccccc2)ccc([N+](=O)[O-])c1Cl	Nrf2 block 14.6µM, A549 viability inconclusive (no result: p53 reactivation, miR-21 reporter, ClpP mod)
O=C(Oc1ccc2cc(Br)ccc2c1)N1CCCCCC1	p53 reactivation inconclusive (no result: Nrf2 ARE act, ClpP mod, Nrf2 block, A549 viability)
CCC1(O)C(=O)OCc2c1cc1n(c2=O)Cc2cc3c(N)cccc3nc2-1 (configuration not stated)	Nrf2 block 0.82µM, A549 viability inconclusive (no result: p53 reactivation, miR-21 reporter)
Cc1ccc(-c2nc3c(=O)n(C)c(=O)nc-3n(C)n2)cc1	Nrf2 block 3.26µM, A549 viability 2.91µM (no result: Nrf2 ARE act, p53 reactivation, miR-21 reporter)
Cn1ncnc2c(=O)n(C)c(=O)nc1-2	miR-21 reporter inconclusive, Nrf2 block 0.184µM, A549 viability 0.461µM
C=C1C=C(C(F)F)n2ncc(C(=O)NCc3ccccc3F)c2N1	none (no result: Nrf2 ARE act, p53 reactivation, miR-21 reporter, Nrf2 block, A549 viability)
COc1ccc(-c2cc(C(=O)N3CCN(c4ccccc4OC)CC3)c3cc(C(C)C)ccc3n2)cc1	ClpP mod inconclusive (no result: p53 reactivation, Nrf2 block)
COc1cc2cc(c1Cl)N(C)C(=O)CC(OC(=O)C(C)N(C)C(C)=O)C1(C)OC1C(C)C1CC(O)(NC(=O)O1)C(OC)C=CC=C(C)C2 (configuration not stated)	Nrf2 block inconclusive (no result: p53 reactivation, miR-21 reporter)
CCC1(CC(C)C)C(=O)NC(=S)NC1=O	none (no result: p53 reactivation, miR-21 reporter)
CCCC1(CC(C)C)C(=O)NC(=S)NC1=O	ClpP mod 28.2µM (no result: p53 reactivation, miR-21 reporter)
Cc1c2ccncc2c(C)c2c1[nH]c1ccccc12	miR-21 reporter inconclusive, ClpP mod inconclusive, Nrf2 block 7.31µM, A549 viability inconclusive
O=C1NC2C(=CC(O)C(O)C2O)c2cc3c(cc21)OCO3 (configuration not stated)	ClpP mod inconclusive, Nrf2 block 2.06µM, A549 viability inconclusive (no result: p53 reactivation, miR-21 reporter)
Cc1oc(-c2ccc(Cl)cc2)nc1CN1CCC(C(=O)NCCCN2CCN(c3cccc(Cl)c3)CC2)CC1	miR-21 reporter inconclusive, Nrf2 block inconclusive (no result: p53 reactivation)
Cc1c(C)c2ccc(OCC(=O)N3CCC(C(=O)O)(c4ccccc4)CC3)cc2oc1=O	none (no result: p53 reactivation)
CCc1c(C)c2ccc(OCC(N)=O)cc2oc1=O	ClpP mod 6.31µM (no result: A549 viability)
CC(=O)C1C(N2CC2)CC2C3CCC4=CC(=O)CCC4(C)C3CCC21C (configuration not stated)	ClpP mod 14.1µM, A549 viability 16.4µM (no result: p53 reactivation, miR-21 reporter)
CC12CCC(=O)C=C1CCC1C2CCC2(C)C(O)CCC12 (configuration not stated)	none
O=C(c1ccc(N2CCCCCC2)c([N+](=O)[O-])c1)N1CCC2(CC1)OCCO2	Nrf2 block 23.1µM, A549 viability inconclusive
O=C(c1ccc2c(c1)OCO2)N1CCC2(CC1)OCCO2	none
CC(C)(C)c1ccc(C(=O)NC(=S)Nn2cnnc2)cc1	p53 reactivation inconclusive, Nrf2 block inconclusive
Cc1ccc(NC(=O)C2CCCN(c3ncnc4onc(C)c34)C2)c(Cl)c1 (configuration not stated)	Nrf2 block 25.9µM (no result: p53 reactivation)
CC(C)COP(=O)(OCC(C)C)C(Nc1ccccc1)c1ccccc1 (configuration not stated)	Nrf2 block inconclusive (no result: ClpP mod)
O=P(Oc1ccccc1)(Oc1ccccc1)C(Nc1ccccc1)c1ccccc1 (configuration not stated)	Nrf2 block 20.6µM
CCC(C)C1NC(=O)C2CCCN2C(=O)C(CC(C)C)OC(=O)CCNC(=O)C(C)N(C)C(=O)C(C(C)C)N(C)C1=O (configuration not stated)	Nrf2 block 5.17µM, A549 viability 8.2µM (no result: p53 reactivation, miR-21 reporter)
Cc1c(N=Cc2c(O)n(Cc3ccccc3)c(=O)[nH]c2=O)c(=O)n(-c2ccccc2)n1C	none (no result: ClpP mod)
Cc1c(N=Cc2c(O)n(Cc3ccco3)c(=O)[nH]c2=O)c(=O)n(-c2ccccc2)n1C	ClpP mod 11.2µM

From PubChem
